Test results reported in patent publication US9732085B2, “Pyridinone and pyrimidinone derivatives as factor Xia” (ONO PHARMACEUTICAL CO., LTD., priority 2011, dated 2017).

By UniProt entry, the sequences of proteins in these tests, tags left out. Residues count along the entry.
UniProt P03951, 19-387 partner: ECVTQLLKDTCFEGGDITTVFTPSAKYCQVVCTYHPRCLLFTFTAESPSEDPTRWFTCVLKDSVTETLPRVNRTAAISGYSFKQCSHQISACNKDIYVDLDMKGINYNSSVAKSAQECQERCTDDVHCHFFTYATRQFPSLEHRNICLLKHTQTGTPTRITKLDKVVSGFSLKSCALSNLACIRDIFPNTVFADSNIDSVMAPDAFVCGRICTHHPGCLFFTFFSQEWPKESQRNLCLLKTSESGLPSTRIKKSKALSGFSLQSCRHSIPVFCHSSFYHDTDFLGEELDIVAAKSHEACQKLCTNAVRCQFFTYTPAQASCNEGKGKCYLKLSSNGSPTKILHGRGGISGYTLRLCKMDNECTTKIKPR
UniProt P03951, 388-625: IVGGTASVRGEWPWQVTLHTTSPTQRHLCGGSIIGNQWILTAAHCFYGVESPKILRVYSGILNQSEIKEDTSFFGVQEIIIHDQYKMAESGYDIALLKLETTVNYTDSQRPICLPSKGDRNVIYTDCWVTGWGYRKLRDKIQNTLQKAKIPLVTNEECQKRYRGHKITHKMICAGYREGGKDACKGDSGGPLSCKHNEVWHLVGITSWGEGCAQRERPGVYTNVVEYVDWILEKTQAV

Molecular target: Human Factor XIa (Homo sapiens (Human), UniProt P03951)
Test: Factor XIa enzyme activity (chromogenic substrate S-2366)
Type: biochemical
Settings: human Factor XIa 0.1 U/mL, 300 μM S-2366, pH7.4; read-out: In vitro FXIa inhibitory activity IC50
Experimental: Inhibitory activities of compounds of the present invention against factor XIa, Xa, XIIa, IXa, VIIa, plasma kallikrein or thrombin were evaluated using appropriate purified proteases and synthetic substrates. The rate of hydrolysis of the chromogenic substrate by the relevant protease was continuously measured at 405 nm.
Inhibitory activity against each enzyme was calculated as % inhibition using the equation described below. % Inhibition=[[(rate without compound)−(rate with compound)](rate without compound)]×100%. Each half maximal inhibitory concentration (IC50) value was determined by plotting the concentration of compound of the invention against the % inhibition. (1-1) Factor XIa Enzyme Activity
Human Factor XIa (Haematologic Technologies Inc.) activity was measured at an enzyme concentration of 0.1 U/mL in 150 mM NaCl, 5 mM KCl, 1 mg/mL PEG6000, 50 mM HEPES-NaOH (pH7.4) with 300 μM S-2366 (pyroGlu-Pro-Arg-pNA, Chromogenix).

COC(=O)Nc1ccc(-c2cnc([C@@H]3CCc4cc(-c5cc(Cl)ccc5-n5cc(Cl)nn5)cc(=O)n43)[nH]2)cc1 [Example 310, methyl[4-(2-{(3S)-7-[5-chloro-2-(4-chloro-1H-1,2,3-triazol-1-yl)phenyl]-5-oxo-1,2,3,5-tetrahydro-3-indolizinyl}-1H-imidazol-5-yl)phenyl]carbamate]
IC50: 4.9 nM
